Sequences of proteins named here, by UniProt entry; tags and fusion partners are left off.
UniProt Q13547, whole entry: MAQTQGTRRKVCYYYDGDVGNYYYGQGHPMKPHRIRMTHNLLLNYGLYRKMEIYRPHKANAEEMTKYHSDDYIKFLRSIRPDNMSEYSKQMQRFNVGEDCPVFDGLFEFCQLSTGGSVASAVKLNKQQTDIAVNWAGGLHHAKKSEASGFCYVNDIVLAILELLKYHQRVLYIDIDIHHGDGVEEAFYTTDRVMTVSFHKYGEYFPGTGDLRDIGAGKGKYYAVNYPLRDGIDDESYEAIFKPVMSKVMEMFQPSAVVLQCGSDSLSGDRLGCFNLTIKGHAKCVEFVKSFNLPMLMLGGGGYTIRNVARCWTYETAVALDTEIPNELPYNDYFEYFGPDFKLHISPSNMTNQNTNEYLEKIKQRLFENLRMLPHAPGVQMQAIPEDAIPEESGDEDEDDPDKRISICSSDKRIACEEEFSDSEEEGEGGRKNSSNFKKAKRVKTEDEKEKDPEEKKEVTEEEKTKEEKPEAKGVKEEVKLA

The first assay concerns HDAC.
Assay: not given
Conditions: read-out: IC50 enzyme activity; WO2012152208, background; cited from earlier work.
Regarding `O=C(CCNC(=O)c1nc(-c2nccs2)sc1C1CC1)NO` [bexanostat], the IC50 is less than 400 nM.

The next assay deals with T1, human HDAC1 (Homo sapiens, UniProt Q13547).
T1 construct: made in house
The assay is described as follows: Inhibition activity test of histone deacetylase 1 (fluorescence, Ac-Lys-Tyr-Lys(Ac)-AMC substrate). The class given is biochemical. Conditions: mean of 3 experiments.
The compound `CC(NC(=O)c1nc(-c2nccs2)sc1C1CC1)c1ccc(C(=O)NO)cc1` (stereo not drawn) [Compound H01] showed a half-maximal inhibitory concentration (IC50) of 81 ± 15.1 nM. In turn, `C[C@H](NC(=O)c1nc(-c2nccs2)sc1C1CC1)c1ccc(C(=O)NO)cc1` [Compound H02] gave an IC50 of 40.9 ± 0.41 nM. With `CC(C)[C@H](NC(=O)c1nc(-c2nccs2)sc1C1CC1)c1ccc(C(=O)NO)cc1` [Compound H04], it took 38.2 ± 7.29 nM to reach half-maximal inhibition (IC50).

`Cc1cnc(-c2nc(C(=O)N[C@@H](C)c3ccc(C(=O)NO)cc3)c(C3CC3)s2)s1` [Compound H05]: the IC50 amounted to 19.9 ± 0.47 nM. In the case of `Cc1csc(-c2nc(C(=O)N[C@@H](C)c3ccc(C(=O)NO)cc3)c(C3CC3)s2)n1` [Compound H06], the half-inhibitory concentration (IC50) worked out at 16.5 ± 0.5 nM. The same measure, in the same setting: the result for `C[C@H](NC(=O)c1nc(-c2nc3c(s2)CCCC3)sc1C1CC1)c1ccc(C(=O)NO)cc1` [Compound H07] reads 14.7 ± 0.67 nM. On to `C[C@H](NC(=O)c1nc(-c2ncc(-c3ccc(F)cc3)s2)sc1C1CC1)c1ccc(C(=O)NO)cc1` [Compound H09], for which the IC50 was 2.64 ± 0.02 nM. For the compound `COc1ccc(-c2cnc(-c3nc(C(=O)N[C@@H](C)c4ccc(C(=O)NO)cc4)c(C4CC4)s3)s2)cc1` [Compound H10], the midpoint of inhibition, the IC50, lay at 3.57 ± 0.4 nM.

By IC50 is commonly meant the point on the concentration scale where inhibition reaches its midpoint.

The values are drawn from patent US10766889B2, “Aryl-2,2′-tandem bisthiazole compound and preparation method and use thereof” (SHANGHAI INSTITUTE OF MATERIA MEDICA, CHINESE ACADEMY OF …, priority 2016, dated 2020).
